The values below come from BindingDB's records for patent US9518026 (University of Washington Through Its Center For …, 2016).

The target in the assay is T1, Uncharacterized protein (Cryptosporidium parvum, UniProt A0A7S7LIM2).
T1 sequence (A0A7S7LIM2 whole entry): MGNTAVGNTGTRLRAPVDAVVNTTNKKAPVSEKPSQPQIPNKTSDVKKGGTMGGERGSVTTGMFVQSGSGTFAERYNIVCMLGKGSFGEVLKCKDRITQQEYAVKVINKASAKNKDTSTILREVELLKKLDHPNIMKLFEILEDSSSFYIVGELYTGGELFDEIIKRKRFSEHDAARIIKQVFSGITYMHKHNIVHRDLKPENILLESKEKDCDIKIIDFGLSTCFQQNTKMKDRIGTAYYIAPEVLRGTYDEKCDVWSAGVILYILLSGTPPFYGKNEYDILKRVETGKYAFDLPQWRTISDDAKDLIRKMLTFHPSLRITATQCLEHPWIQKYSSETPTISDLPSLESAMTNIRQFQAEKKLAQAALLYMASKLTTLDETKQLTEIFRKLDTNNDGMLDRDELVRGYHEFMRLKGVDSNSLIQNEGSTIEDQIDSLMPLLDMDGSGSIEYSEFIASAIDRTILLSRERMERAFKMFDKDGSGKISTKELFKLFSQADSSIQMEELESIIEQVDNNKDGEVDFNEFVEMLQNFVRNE
The assay can be described thus: Luminescent Kinase Assay.

Each structure is given as a SMILES string. pIC50: −log10 of the molar value.

As usually defined, the pIC50 is the IC50 on a negative log10 scale, so that one unit is a factor of ten. `CC(C)(C)n1cc(C(N)=O)c(-c2ccc3c(N)n[nH]c3c2)n1` [US9518026, Example 28]: the pIC50 was 6.38.
